Legend:
OGA = OGA (Homo sapiens, UniProt O60502); assay: OGA cellular assay (ICC detection of O-GlcNAcylated proteins in HEK293 cells inducible for P301L mutant human Tau)
Protocol: HEK293 cells inducible for P301L mutant human Tau (isoform 2N4R) were established at Janssen. Thiamet-G was used for both plate validation (high control) and as reference compound (reference EC50 assay validation). OGA inhibition is evaluated through the immunocytochemical (ICC) detection of O-GlcNAcylated proteins by the use of a monoclonal antibody (CTD110.6; Cell Signaling, #9875) detecting O-GlcNAcylated residues as previously described (Dorfmueller et al. 2010 Chemistry & biology, 17:1250). Inhibition of OGA will result in an increase of O-GlcNAcylated protein levels resulting in an increased signal in the experiment. Cell nuclei are stained with Hoechst to give a cell culture quality control and a rough estimate of immediate compounds toxicity, if any. ICC pictures are imaged with a Perkin Elmer Opera Phenix plate microscope and quantified with the provided software Perkin Elmer Harmony 4.1.
Cells were propagated in DMEM high Glucose (Sigma, #D5796) following standard procedures. 2 days before the cell assay cells are split, counted and seeded in Poly-D-Lysine (PDL) coated 96-wells (Greiner, #655946) plate at a cell density of 12,000 cells per cm^2 (4,000 cells per well) in 100 μl of Assay Medium (Low Glucose medium is used to reduce basal levels of GlcNAcylation) (Park et al. 2014 The Journal of biological chemistry 289:13519). […]

Sequences of proteins named here, by UniProt entry; tags and fusion partners are left off.
UniProt O60502, whole entry: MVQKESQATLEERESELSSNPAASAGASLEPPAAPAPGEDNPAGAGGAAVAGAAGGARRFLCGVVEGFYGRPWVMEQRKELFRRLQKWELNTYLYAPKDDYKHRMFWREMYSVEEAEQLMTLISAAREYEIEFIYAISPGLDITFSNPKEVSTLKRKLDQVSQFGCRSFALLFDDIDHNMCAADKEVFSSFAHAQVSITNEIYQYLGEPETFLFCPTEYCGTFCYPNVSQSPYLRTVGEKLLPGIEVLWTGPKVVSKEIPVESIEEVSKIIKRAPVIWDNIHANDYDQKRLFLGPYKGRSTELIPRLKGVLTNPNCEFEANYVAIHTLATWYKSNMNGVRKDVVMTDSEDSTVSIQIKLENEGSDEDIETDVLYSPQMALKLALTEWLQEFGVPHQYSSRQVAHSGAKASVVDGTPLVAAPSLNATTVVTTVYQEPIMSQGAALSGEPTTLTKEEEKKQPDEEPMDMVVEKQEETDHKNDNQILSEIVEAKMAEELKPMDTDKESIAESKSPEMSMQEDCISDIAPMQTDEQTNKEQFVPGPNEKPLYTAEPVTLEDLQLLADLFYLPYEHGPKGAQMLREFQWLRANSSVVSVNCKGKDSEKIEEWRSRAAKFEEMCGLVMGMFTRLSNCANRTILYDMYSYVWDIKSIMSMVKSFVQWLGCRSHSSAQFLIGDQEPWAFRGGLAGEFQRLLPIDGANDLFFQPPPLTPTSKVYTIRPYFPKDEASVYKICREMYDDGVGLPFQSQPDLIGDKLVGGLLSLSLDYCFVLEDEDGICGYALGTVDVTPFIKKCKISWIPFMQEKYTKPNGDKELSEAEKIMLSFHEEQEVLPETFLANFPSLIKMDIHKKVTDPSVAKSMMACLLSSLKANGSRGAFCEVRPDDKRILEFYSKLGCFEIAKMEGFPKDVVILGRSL

[1] = molecular target: recombinant human Meningioma Expressed Antigen 5 (MGEA5), also referred to as O-GlcNAcase (OGA) (Homo sapiens, UniProt O60502); assay: OGA biochemical assay (inhibition of FM-GlcNAc hydrolysis, fluorescence); details: FM-GlcNAc substrate
Excerpt: The assay is based on the inhibition of the hydrolysis of fluorescein mono-β-D-N-Acetyl-Glucosamine (FM-GlcNAc) (Mariappa et al. 2015, Biochem J 470:255) by the recombinant human Meningioma Expressed Antigen 5 (MGEA5), also referred to as O-GlcNAcase (OGA). The hydrolysis FM-GlcNAc (Marker Gene technologies, cat #M1485) results in the formation of β-D-N-glucosamineacetate and fluorescein. The fluorescence of the latter can be measured at excitation wavelength 485 nm and emission wavelength 538 nm. An increase in enzyme activity results in an increase in fluorescence signal. Full length OGA enzyme was purchased at OriGene (cat #TP322411). The enzyme was stored in 25 mM Tris.HCl, pH 7.3, 100 mM glycine, 10% glycerol at −20° C. Thiamet G and GlcNAcStatin were tested as reference compounds (Yuzwa et al. 2008 Nature Chemical Biology 4:483; Yuzwa et al. 2012 Nature Chemical Biology 8:393). The assay was performed in 200 mM Citrate/phosphate buffer supplemented with 0.005% Tween-20. […]
50 nl of a compound dissolved in DMSO was dispensed on Black Proxiplate™ 384 Plus Assay plates (Perkin Elmer, #6008269) and 3 μl fl-OGA enzyme mix added subsequently. […] Fluorescence was quantified in the Thermo Scientific Fluoroskan Ascent or the PerkinElmer EnVision with excitation wavelength 485 nm and emission wavelength 538 nm. […]

- Cellular hOGA; pEC50 (OGA; 6 hours incubation, ICC O-GlcNAcylation): 6.1
- Cellular Emax (%) (OGA; maximum defined by Thiamet G at 200 uM): 51%
- Enzymatic hOGA; pIC50 ([1]; 6 h at room temperature): 6.9
- Enzymatic Emax (%) ([1]; maximal effect): 100%
Compound: COc1cc(C[C@H]2CCN(C(C)c3ccc4c(n3)OCCO4)C2)cc(C)n1 (stereo partly shown)

Reference: patent US20210277015A1, “OGA INHIBITOR COMPOUNDS” (Janssen Pharmaceutica NV, priority 2018, published 2021)
